Assay results taken from PubChem BioAssay AID504692 (The Scripps Research Institute Molecular Screening Center, 2011).
Only a part is listed here, and it is no random draw. Active and inactive are the calls of the source. Rule as the data show it: active = activation mostly above about 9.5% (no sharp cut-off); inactive = mostly below about 7.6%.

The chains behind the UniProt entries cited, without tags or fusion partners.
UniProt P47898, whole entry, looked up: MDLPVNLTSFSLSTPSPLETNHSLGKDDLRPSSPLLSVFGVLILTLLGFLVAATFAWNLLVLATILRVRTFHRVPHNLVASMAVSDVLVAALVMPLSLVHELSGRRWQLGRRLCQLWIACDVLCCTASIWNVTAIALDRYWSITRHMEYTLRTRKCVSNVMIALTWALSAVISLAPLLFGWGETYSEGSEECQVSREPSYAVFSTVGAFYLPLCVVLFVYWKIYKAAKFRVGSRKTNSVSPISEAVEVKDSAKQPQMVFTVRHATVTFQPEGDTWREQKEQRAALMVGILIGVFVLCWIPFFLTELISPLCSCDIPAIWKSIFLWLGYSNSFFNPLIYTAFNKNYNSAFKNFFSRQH

Molecular target: 5-hydroxytryptamine receptor 5A (Homo sapiens) (UniProt P47898)
Assay: activation of human 5-HT5A receptor – cell-based, luminescence, full-deck HTS, counter-screen for OPRM1-OPRD1 heterodimer agonist project, primary screen (AID 504692);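 also: 0% = cells with vehicle only and 100% = reference agonist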
Conditions: HTR5A agonist assay, at 9.3 µM, stronger effect = higher value

| SMILES | activation |
| --- | --- |
| O=P1(N(CCCl)CCCl)Nc2ccccc2N1 | inactive: -0.77% |
| Cc1cc2ncn(C3CC(=O)N(C)C3=O)c2cc1C (centres undefined) | inactive: -2.95% |
| COc1ccc(CNC(=O)CCNC(=O)N2CCn3c2nc2ccccc23)cc1 | inactive: 4.71% |
| C=CCSc1nnc(NC(=O)Cn2cnc3c2c(=O)n(C)c(=O)n3C)s1 | inactive: 0.24% |
| Cn1c(=O)c2c(nc(NCc3ccccc3)n2CC(N)=O)n(C)c1=O | inactive: -1.86% |
| CSc1nc(N)nc2c1ncn2CC(=O)NCCCN1CCCC1=O | inactive: 2.9% |
| Cc1ccc2c(c1)C1CN(C)CCC1N2C(=S)Nc1ccc(Cl)cc1Cl (centres undefined) | inactive: 2.32% |
| Cc1nc2ccccc2n1C1CCN(Cc2nnnn2CCc2ccccc2)CC1 | inactive: 6.53% |
| Oc1ccccc1CNc1nc2ccccc2n1CCN1CCCCC1 | inactive: 3.54% |
| COC(=O)C1(C)COP(=O)(N2CCCCCC2)OC1 (centres undefined) | inactive: -1.51% |
| CCC(C(=O)NC1CCCCC1)n1c(SCc2ccccc2F)nc2ccncc21 (centres undefined) | inactive: 0.63% |
| COC(=O)c1ccc(CNC(=O)Cn2cnc3c(SC)nc(N)nc32)cc1 | inactive: 1.86% |
| c1csc(CNc2nc3ccccc3n2CCN2CCOCC2)c1 | inactive: 3.22% |
| CC(C)c1ccc(OP(=O)(Nc2ccccn2)Oc2ccccc2F)cc1 (centres undefined) | inactive: 8.56% |
| N=c1n(CCN2CCCCC2)c2ccccc2n1CC(=O)c1cccc([N+](=O)[O-])c1 | inactive: 5.13% |
| CCC(=O)Nc1nc2ccccc2n1CCN(CC)CC | inactive: 6.16% |
| COc1ccccc1NC(=O)N1CCn2c(nc3ccccc32)C1 | inactive: -1.35% |
| Cn1c(=O)c2c(ncn2CC(=O)N2CCN(c3cccc(Cl)c3)CC2)n(C)c1=O | inactive: 0.96% |
| CC(C)NC(=O)Cn1c(SCC(=O)c2ccc(F)cc2)nc2ccccc21 | inactive: -0.74% |
| Cc1cc(C)c(CN2CCN(C(=O)Cn3cnc4c(NCc5ccccc5)ncnc43)CC2)c(C)c1 | inactive: 6.82% |

| SMILES | activation |
| --- | --- |
| Cc1ccc2c(c1)C1CN(C)CCC1N2C(=O)CCCN1C(=O)c2cccc3cccc(c23)C1=O (centres undefined) | inactive: -1.76% |
| ClCCSc1nnc(-c2cccnc2)o1 | inactive: 3.63% |
| Cc1ccsc1/C=N/NC(=O)Cn1cnc2ccccc21 | inactive: -1.68% |
| CCOC(=O)CC[C@H](NC(=O)Cn1cnc2c(NCc3ccccc3)ncnc21)C(=O)OCC | inactive: 2.82% |
| CC1(C)c2ccccc2N2CCC(=O)NC21/C=C/c1ccco1 (centres undefined) | inactive: -2.57% |
| Cc1nc2ccccc2n1CC(=O)NCCN1CCCC1 | inactive: -1.05% |
| Cc1ccc(NC(=O)Cn2cnc3c(=O)n(C)c(=O)n(C)c32)c(C)c1 | inactive: -0.86% |
| CCC(=O)Nc1cccc(C(=O)/C=C/c2ccc(F)cc2)c1 | inactive: -6.33% |
| Cc1cccc(CSc2nc3ccncc3n2CC(=O)Nc2cc(C)cc(C)c2)c1 | inactive: 7.93% |
| Cn1c(=O)c2c(nc(CN3CCC(Cc4ccccc4)CC3)n2CCN2CCOCC2)n(C)c1=O | inactive: 5.61% |
| CC1CCN(C(=O)Cn2cnc3c2c(=O)n(C)c(=O)n3C)c2ccccc2S1 (centres undefined) | inactive: -6.75% |
| Cc1ccc(Cn2nnnc2CN2CCC(n3nnc4cc(C)ccc43)CC2)cc1 | inactive: 6.39% |
| C[C@H](NC(=O)N1CCn2c1nc1ccccc12)C(=O)NC1CC1 | inactive: 1.74% |
| O=C(Cn1c(C(F)(F)F)nc2ccccc21)N1CCCC1 | inactive: 2.84% |
| Cc1ccc(-c2csc(NCCn3c(C)nc4cc(C(F)(F)F)ccc43)n2)cc1 | inactive: 0.13% |
| O=C(CCNC(=O)N1CCn2c1nc1ccccc12)NCc1ccc(F)cc1 | inactive: -0.31% |
| COc1cc(NC(=O)Cn2cnc3c(OCc4ccccc4)ncnc32)cc(OC)c1OC | inactive: 2.61% |
| CCN(CC)C(=S)SC(NC=O)C(Cl)(Cl)Cl (centres undefined) | inactive: -0.85% |
| C=C(C)Cn1c(=O)c2c(nc3n2CCN3c2cccc(Cl)c2C)n(C)c1=O | inactive: 1.46% |
| O=C(OC1CN2CCC1CC2)c1cccc2[nH]cnc12 (centres undefined) | inactive: -0.81% |

| SMILES | activation |
| --- | --- |
| O=C(Nc1nc2ccccc2n1CCN1CCOCC1)c1cn(-c2ccccc2)nc1-c1ccccc1 | inactive: -4.68% |
| COC(=O)[C@H](CC(C)C)NC(=O)Cn1cnc2c(SC)nc(N)nc21 | inactive: 0.01% |
| O=C(Cn1c2[n+](c3ccc(C(F)(F)F)cc31)CCCCC2)Nc1c(F)cccc1F | inactive: 0.61% |
| Cn1c(=O)c2c(ncn2CC(=O)Nc2nc(-c3ccccc3Cl)cs2)n(C)c1=O | inactive: 1.31% |
| O=C(Cn1cnc2c(NCc3ccccc3)ncnc21)NCCCc1ccccc1 | inactive: 0.34% |
| O=C(Cn1c(-c2ccccn2)nc2ccccc21)NCCN1CCOCC1 | inactive: 0.43% |
| O=[N+]([O-])c1cc([N+](=O)[O-])c(-c2ccn[nH]2)s1 | inactive: 0.63% |
| COc1ccc(CCNC(=O)[C@@H](NC(=O)N2CCn3c2nc2ccccc23)C(C)C)cc1OC | inactive: 3.18% |
| CC1c2nc3ccccc3n2C(CC(=O)NCCCN2CCOCC2)C(=O)N1Cc1ccccc1 (centres undefined) | inactive: 1.3% |
| CSc1nc2ccccc2n1CC(=O)Nc1c(C)cccc1C | inactive: -0.66% |
| CN1CCN(c2nc3c(c(=O)[nH]c(=O)n3C)n2CC(N)=O)CC1 | inactive: -1.64% |
| Cc1n[nH]c(C)c1S(=O)(=O)N1CCC(C(=O)N2CCn3c2nc2ccccc23)CC1 | inactive: -15.7% |
| Cc1ccc(SCc2nc3ccccc3n2CC(=O)Nc2c(C)cccc2C)cc1 | inactive: -0.93% |
| C[As](=O)(O)c1cccc(C(=O)O)c1 | inactive: 4.64% |
| O=[As](O)(c1ccc(O)cc1)c1ccccc1O | inactive: 1.15% |
| COc1ccc(NC(=O)N2CCn3c2nc2ccccc23)cc1 | inactive: -0.34% |
| Cc1ccc(S(=O)(=O)Nc2ccc3c(c2)nc2n3CCN(Cc3ccccc3)C2)cc1 | inactive: -1.78% |
| O=[N+]([O-])c1ccc(-c2cc([N+](=O)[O-])c(O)c([N+](=O)[O-])c2)cc1 | inactive: -1.43% |
| Cn1c(=O)c2c(ncn2CC(=O)N/N=C/C(Br)=C/c2ccccc2)n(C)c1=O | inactive: -2.66% |
